Measured values: article PMC6530635, “A Novel Single-Site Mutation in the Catalytic Domain of Protoporphyrinogen Oxidase IX (PPO) Confers Resistance to PPO-Inhibiting Herbicides” (Frontiers in Plant Science, 2019)

Assays:
Format in all cases: biochemical
[1] = system: recombinant Amaranthus tuberculatus PPO2 G399A
[2] = system: recombinant Amaranthus tuberculatus PPO2 ΔG210
[3] = system: recombinant Amaranthus tuberculatus PPO2 R128L

SMILES	Resistance factor G399A (IC50 mutant / IC50 sensitive PPO2) [1]	Resistance factor ΔG210 (IC50 mutant / IC50 sensitive PPO2) [2]	Resistance factor R128L (IC50 mutant / IC50 sensitive PPO2) [3]
CS(=O)(=O)NC(=O)c1cc(Oc2ccc(C(F)(F)F)cc2Cl)ccc1[N+](=O)[O-] [Fomesafen]	>7576	12315	1479
CC(C)N(C)S(=O)(=O)NC(=O)c1cc(-n2c(=O)cc(C(F)(F)F)n(C)c2=O)c(F)cc1Cl [Saflufenacil]	570	1455	202
